Reference: ChEMBL document CHEMBL1773020, “Discovery of fused bicyclic agonists of the orphan G-protein coupled receptor GPR119 with in vivo activity in rodent models of glucose control” (Bioorg Med Chem Lett, 2011)

Target: T1, Glucose-dependent insulinotropic receptor (Homo sapiens) (UniProt Q8TDV5)
T1 sequence (whole entry): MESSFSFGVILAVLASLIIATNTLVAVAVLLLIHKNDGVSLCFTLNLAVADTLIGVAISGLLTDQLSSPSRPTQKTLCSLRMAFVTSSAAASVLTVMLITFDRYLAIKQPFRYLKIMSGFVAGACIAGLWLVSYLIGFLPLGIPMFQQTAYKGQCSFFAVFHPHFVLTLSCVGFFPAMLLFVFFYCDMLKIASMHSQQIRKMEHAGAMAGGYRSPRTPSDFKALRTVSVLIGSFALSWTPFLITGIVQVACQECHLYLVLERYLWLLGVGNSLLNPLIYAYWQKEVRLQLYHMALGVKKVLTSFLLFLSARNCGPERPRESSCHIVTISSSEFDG
Assay: Agonist activity at human GPR119 by melanophore assay relative to AR231453
Assay type: functional
How it was run: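 Melanophores transfected with human GPR119. Apparent Emax is the curve height normalized to the positive control AR231453, which is defined as a full agonist (100% efficacy).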

Emax: 89%
Compound: CC(C)OC(=O)N1CCC(Oc2ncnc3c2cnn3-c2ccc(S(C)(=O)=O)cc2F)CC1
